Earlier results as cited in US20200315241A1 (Nude Nicotine, Inc., priority 2017, published 2020).
Like-named read-outs stand apart in the source and are kept apart here.

Details: Table 7, nicotine salt (organic acid), cited from earlier work

Structure (SMILES)	pKa	pKa (second value)
CN1CCCC1c1cccnc1.O=C(O)c1ccccc1 (centres unmarked) [Nicotine benzoate]	4.19	–
CN1CCCC1c1cccnc1.O=C(O)CC(O)(CC(=O)O)C(=O)O [Nicotine citrate]	2.79	–
CN1CCCC1c1cccnc1.O=CO (centres unmarked) [Nicotine formate]	3.75	–
CN1CCCC1c1cccnc1.O=C(O)/C=C/C(=O)O (centres unmarked) [Nicotine fumarate]	3.03	4.54
CN1CCCC1c1cccnc1.O=C(O)CO (centres unmarked) [Nicotine glycolate]	3.83	–
CC(O)C(=O)O.CN1CCCC1c1cccnc1 (centres unmarked) [Nicotine lactate]	3.58	–
CN1CCCC1c1cccnc1.O=C(O)CC(O)C(=O)O (centres unmarked) [Nicotine malate]	3.51	5.03
CN1CCCC1c1cccnc1.O=C(O)CC(=O)O (centres unmarked) [Nicotine malonate]	2.85	–
CN1CCCC1c1cccnc1.O=C(O)C(=O)O (centres unmarked) [Nicotine oxalate]	1.46	4.40
CCC(=O)O.CN1CCCC1c1cccnc1 (centres unmarked) [Nicotine propionate]	4.88	–
CN1CCCC1c1cccnc1.O=C(O)CCC(=O)O (centres unmarked) [Nicotine succinate]	4.21	5.63
CN1CCCC1c1cccnc1.O=C(O)C(O)C(O)C(=O)O (centres unmarked) [Nicotine tartrate]	3.22	4.85
